Tested on: RAW264.7
Assay: Selectivity ratio of IC50 for mouse RAW264.7 cells to IC50 for mouse LLC cells

SMILES: NCCCC(O)(P(=O)([O-])O)P(=O)(O)O.O.O.O.[Na+]
- Ratio IC50: 11

Source: ChEMBL document CHEMBL1777702, “N⁴-[Alkyl-(hydroxyphosphono)phosphonate]-cytidine-new drugs covalently linking antimetabolites (5-FdU, araU or AZT) with bone-targeting bisphosphonates (alendronate or pamidronate)” (Bioorg Med Chem, 2011)
